Laboratory results taken from US12383566B2, “Inhibition of SLC transporter activity or expression to attenuate anthracycline-induced cardiotoxicity” (Northwestern University, priority 2021, dated 2025).

Test system: Mouse model of doxorubicin-induced cardiomyopathy
Experiment: Mouse model of doxorubicin-induced cardiomyopathy, echocardiographic evaluation
Format: in vivo, C57BL/6J mice
Conditions: Week 3; Mean
Source text: Procedures followed were in accordance with Stanford University's institutional guidelines. […] For the control group, we treated mice with corn oil in the same schedule as desipramine administration. We recorded an echocardiogram once a week (day 0, day 7, day 14, and day 21) and terminated the experiment at day 21.
For the control group, we treated mice with corn oil in the same schedule as desipramine administration. We recorded an echocardiogram once a week (day 0, day 7, day 14, and day 21) and terminated the experiment at day 21.
Echocardiographic evaluation. Mice were studied at baseline and weekly during the protocol under light anesthesia with isoflurane (induction 3%, maintenance 1.5%). 2D images in the parasternal short axis were obtained with a GE Vivid 7 ultrasound system (GE Healthcare) equipped with a 13 MHz transducer. Left ventricular end-systolic (LVESD) and end-diastolic (LVEDD) dimensions were measured and left ventricular fractional shortening (FS) was calculated.

Question: With `COc1cccc2c1C(=O)c1c(O)c3c(c(O)c1C2=O)C[C@@](O)(C(=O)CO)C[C@@H]3O[C@H]1C[C@H](N)[C@H](O)[C@H](C)O1` [DOX, doxorubicin] as the molecule, how does the “IVSs (LV interventricular septum thickness at systole)” value read?
Answer: 0.97 mm
